# Assay results: US4526891A, “Substituted alkyl amine derivatives of 6,11-dihydro-11-oxodibenz[b,e]oxepins” (Hoechst Roussel Pharmaceuticals Inc., priority 1983, dated 1985)
# Test system: 2-phenyl-1,4-benzoquinone-induced writhing
# Experiment: 2-phenyl-1,4-benzoquinone-induced writhing test in mice (analgesia)
# Type: in vivo
# Conditions: oral dose
structure (smiles),measurement,value
Cl.O.O=C1c2ccccc2COc2ccc(CCN3CCC4(CC3)C(=O)NCN4c3ccccc3)cc21,ED50 (dosage which exhibits 50% inhibition of writhing),8.4 mg/kg of body weight
